Among the data in ChEMBL document CHEMBL1133635, “Caspases as targets for anti-inflammatory and anti-apoptotic drug discovery” (J Med Chem, 2000) are k on values, retold here.

Assay [1] concerns the target T1, Caspase-1 (Homo sapiens) (UniProt P29466).
T1 sequence (whole entry): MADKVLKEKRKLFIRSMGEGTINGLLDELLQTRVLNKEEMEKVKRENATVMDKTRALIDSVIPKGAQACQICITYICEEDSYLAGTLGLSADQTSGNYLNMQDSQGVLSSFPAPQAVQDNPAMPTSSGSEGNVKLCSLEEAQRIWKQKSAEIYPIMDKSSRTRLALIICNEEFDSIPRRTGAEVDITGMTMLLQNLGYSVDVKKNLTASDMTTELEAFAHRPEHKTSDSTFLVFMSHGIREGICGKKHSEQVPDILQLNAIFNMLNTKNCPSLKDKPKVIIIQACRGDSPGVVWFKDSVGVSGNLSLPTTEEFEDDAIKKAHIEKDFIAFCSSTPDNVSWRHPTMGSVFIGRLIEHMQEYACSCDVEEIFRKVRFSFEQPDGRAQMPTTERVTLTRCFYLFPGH

In assay [2] the target is T1, Caspase-1 (Homo sapiens). This is another data set of the same source.
Assay [3] deals with T1, Caspase-1 (Homo sapiens). The source holds these as a separate data set.

The structures appear in SMILES notation.

Compound `CC(C)[C@H](NC(=O)OCc1ccccc1)C(=O)N[C@@H](C)C(=O)N[C@@H](CC(=O)O)C(=O)COC(=O)c1c(Cl)cccc1Cl` registered a k on on Caspase-1 (Homo sapiens) [1] of 407000 M⁻¹ s⁻¹.

Regarding `CC(C)[C@H](NC(=O)OCc1ccccc1)C(=O)N[C@@H](C)C(=O)N[C@@H](CC(=O)O)C(=O)COP(=O)(c1ccccc1)c1ccccc1`, the k on at Caspase-1 (Homo sapiens) [2] was found to be 117000 M⁻¹ s⁻¹.

On to `CC(C)[C@H](NC(=O)OCc1ccccc1)C(=O)N[C@@H](C)C(=O)NC(CC(=O)O)C(=O)COC1=C(Cc2ccccc2)C(=O)OC1` (some centres not stated), for which the k on at Caspase-1 (Homo sapiens) [2] was found to be 252000 M⁻¹ s⁻¹.

Take `CC(C)[C@H](NC(=O)OCc1ccccc1)C(=O)N[C@@H](C)C(=O)NC(CC(=O)O)C(=O)COc1cc(C(F)(F)F)nn1-c1ccccc1` (some centres not stated): the k on on Caspase-1 (Homo sapiens) [1] was found to be 280000 M⁻¹ s⁻¹.

`CC(C)[C@H](NC(=O)OCc1ccccc1)C(=O)N[C@@H](C)C(=O)NC(CC(=O)O)C(=O)COC(=O)CCc1ccccc1` (some centres not stated): the k on on Caspase-1 (Homo sapiens) [3] is 1.6e+06 M⁻¹ s⁻¹.

`CC(C)[C@H](NC(=O)OCc1ccccc1)C(=O)N1CCCCC1C(=O)N[C@@H](CC(=O)O)C(=O)COc1cc(C(F)(F)F)nn1-c1ccccc1` (some centres not stated) had a k on at Caspase-1 (Homo sapiens) [1] of 271000 M⁻¹ s⁻¹.

At Caspase-1 (Homo sapiens) [2], `CC(C)[C@H](NC(=O)OCc1ccccc1)C(=O)N[C@@H](C)C(=O)NC(CC(=O)O)C(=O)COc1ccc2ccc(=O)oc2c1` (some centres not stated) registered a k on of 160000 M⁻¹ s⁻¹.
